Earlier results, collected in PMC6844378, “Structure activity relationship studies on Amb639752: toward the identification of a common pharmacophoric structure for DGKα inhibitors” (Journal of Enzyme Inhibition and Medicinal Chemistry, 2019).

Protein sequences, listed by entry. Tags and fused reporters are not part of them.
UniProt P23743, whole entry: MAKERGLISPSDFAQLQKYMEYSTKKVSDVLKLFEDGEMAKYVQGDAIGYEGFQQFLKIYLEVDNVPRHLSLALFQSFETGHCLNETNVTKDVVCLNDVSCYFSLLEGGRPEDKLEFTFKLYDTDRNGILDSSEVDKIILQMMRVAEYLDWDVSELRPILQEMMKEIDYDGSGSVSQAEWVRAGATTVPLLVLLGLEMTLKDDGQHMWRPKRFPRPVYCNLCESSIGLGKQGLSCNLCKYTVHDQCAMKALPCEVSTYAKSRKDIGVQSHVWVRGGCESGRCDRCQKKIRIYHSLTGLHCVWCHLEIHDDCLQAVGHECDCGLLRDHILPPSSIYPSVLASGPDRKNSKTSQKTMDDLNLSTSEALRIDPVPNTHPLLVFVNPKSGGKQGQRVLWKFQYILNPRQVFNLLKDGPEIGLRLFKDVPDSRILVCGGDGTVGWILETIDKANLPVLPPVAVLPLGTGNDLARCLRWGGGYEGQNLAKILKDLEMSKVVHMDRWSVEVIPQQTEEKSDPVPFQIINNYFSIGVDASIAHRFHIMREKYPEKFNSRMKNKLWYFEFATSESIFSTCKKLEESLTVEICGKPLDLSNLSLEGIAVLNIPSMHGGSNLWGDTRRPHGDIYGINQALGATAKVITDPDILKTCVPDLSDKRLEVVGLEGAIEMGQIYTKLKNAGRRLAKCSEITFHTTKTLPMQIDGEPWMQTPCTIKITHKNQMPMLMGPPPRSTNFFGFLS

Molecular target: DGKα (Homo sapiens, UniProt P23743)
Details: read-out: IC50 on DGKα; cited from earlier work

Compound: O=C1/C(=C\C=C\c2ccco2)SC(=S)N1NS(=O)(=O)c1ccccc1
- IC50: 0.6 µM
